For one compound, IC50 results are on record in patent publication US4590193A, “3-(2-(4-phenylpiperazinylethyl)anilino)-isobenzofuranones, their method of preparation and their use as antihypertensive and antiallergic drugs” (Societe Cortial, S.A., priority 1982, dated 1986).

Protein sequences, listed by entry. Tags and fused reporters are not part of them.
UniProt P31389, whole entry: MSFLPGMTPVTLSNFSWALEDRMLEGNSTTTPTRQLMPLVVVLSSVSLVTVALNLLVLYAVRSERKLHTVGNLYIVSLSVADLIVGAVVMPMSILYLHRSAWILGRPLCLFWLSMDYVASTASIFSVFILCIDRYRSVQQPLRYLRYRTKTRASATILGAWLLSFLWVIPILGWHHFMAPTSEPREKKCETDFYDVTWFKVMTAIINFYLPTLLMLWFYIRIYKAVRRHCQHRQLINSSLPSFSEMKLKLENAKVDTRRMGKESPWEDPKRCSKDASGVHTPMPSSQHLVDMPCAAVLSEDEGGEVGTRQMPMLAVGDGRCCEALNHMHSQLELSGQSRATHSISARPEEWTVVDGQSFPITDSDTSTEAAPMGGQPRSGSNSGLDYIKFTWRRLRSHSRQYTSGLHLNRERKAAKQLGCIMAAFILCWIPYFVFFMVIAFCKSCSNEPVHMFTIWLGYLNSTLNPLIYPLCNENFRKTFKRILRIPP

The target in the test is T1, contractions induced by histamine on a guinea pig ileum (Cavia porcellus, UniProt P31389).
T1 construct: on a guinea pig ileum; from tissue; host or cells: isolated guinea pig ileum
The experiment in a line: In vitro antihistamine activity: inhibition of histamine-induced contractions of guinea pig ileum. The class given is cell-based. Conditions: histamine 10^-8 g/l; time of contact 15 mm. The method, then: The antagonist is administered at the same time as the agonist or before. In the latter case, the time of contact between the antagonist and the organ isolated before the introduction of the agonist is shown in Table III.

For orientation: IC50 means the concentration at which inhibition is half-maximal. Read a high IC50 as a need for much substance. Take `CC(CN1c2ccccc2Sc2ccccc21)N(C)C` (stereo not shown) [Promethazine, reference compound]: inhibition was half-maximal at 4.93 nM (IC50).
